# Reference: patent US6436691B1, “Chemical compounds” (Zeneca Limited, priority 1995, dated 2002)
# Test system: LoVo colorectal tumour cells
# Test: Cytotoxicity in LoVo tumour cells, SRB assay
# Conditions: for fold less cytotoxic than the corresponding drug: prodrug versus drug
Compound,IC50 (mean data from 3 separate studies) [µM],fold less cytotoxic than the corresponding drug
Cc1cc(Oc2ccc(C(=O)N[C@@H](C)C(=O)O)cc2)ccc1N(CCCl)CCCl,84,
"(2S), 2-(3-{4-[bis-(2-chloroethyl)-amino)-phenoxycarbonyl}-propionyl-amino)-pentanedioic acid",,approximately 50 fold
N-[N-(4-{4-[bis-(2-chloroethyl)-amino]-3-methyl-phenoxy}-benzoyl)-L-alanine]-L-glutamic acid,,over 10 fold
